Experimental data: article PMC10313165, “Imaging single CaMKII holoenzymes at work by high-speed atomic force microscopy” (Science Advances, 2023)

B1: no-linker rat CaMKIIα holoenzyme (enzyme, rat (Rattus norvegicus))
chain: MATITCTRFTEEYQLFEELGKGAFSVVRRCVKVLAGQEYAAKIINTKKLSARDHQKLEREARICRLLKHPNIVRLHDSISEEGHHYLIFDLVTGGELFEDIVAREYYSEADASHCIQQILEAVLHCHQMGVVHRDLKPENLLLASKLKGAAVKLADFGLAIEVEGEQQAWFGFAGTPGYLSPEVLRKDPYGKPVDLWACGVILYILLVGYPPFWDEDQHRLYQQIKAGAYDFPSPEWDTVTPEAKDLINKMLTINPSKRITAAEALKHPWISHRSTVASCMHRQETVDCLKK[about 20 residues omitted]VRKQEIIKVTEQLIEAISNGDFESYTKMCDPGMTAFEPEALGNLVEGLDFHRFYFENLWSRNSKPVHTTILNPHIHLMGDESACIAYIRITQYLDAGGIPRTAQSEETRVWHRRDGKWQIVHFHRSGAPSVLPH
notes: CaMKIIα, rat (Rattus norvegicus), […] lacking the linker, […]; also called nlCaMKIIα; source: HEK293, transfected, purified (Strep-Tactin Sepharose, then NTA column)
B2: no-linker rat CaMKIIα I321E holoenzyme (enzyme, rat (Rattus norvegicus))
chain: MATITCTRFTEEYQLFEELGKGAFSVVRRCVKVLAGQEYAAKIINTKKLSARDHQKLEREARICRLLKHPNIVRLHDSISEEGHHYLIFDLVTGGELFEDIVAREYYSEADASHCIQQILEAVLHCHQMGVVHRDLKPENLLLASKLKGAAVKLADFGLAIEVEGEQQAWFGFAGTPGYLSPEVLRKDPYGKPVDLWACGVILYILLVGYPPFWDEDQHRLYQQIKAGAYDFPSPEWDTVTPEAKDLINKMLTINPSKRITAAEALKHPWISHRSTVASCMHRQETVDCLKK[about 20 residues omitted]VRKQEIEKVTEQLIEAISNGDFESYTKMCDPGMTAFEPEALGNLVEGLDFHRFYFENLWSRNSKPVHTTILNPHIHLMGDESACIAYIRITQYLDAGGIPRTAQSEETRVWHRRDGKWQIVHFHRSGAPSVLPH
notes: also called nlCaMKIIα_(I321E); source: HEK293, transfected, purified (Strep-Tactin Sepharose, then NTA column)

Molecular target: the molecule itself
Experiment: high-speed atomic force microscopy; single holoenzyme particles on mica modified with cationic pillar[5]arene; buffer A (50 mM tris-HCl pH 7.4, 15 mM KCl, 10 mM MgCl2, 10% glycerol) with the additives of each state; 24-26 °C; kinase domains seen around a central hub assembly

Row | Protein | binding result
1 | B1 | binds
2 | B2 | binds
